These results are taken from ChEMBL document CHEMBL1151729 (J Med Chem, 2008).

Chains of the proteins cited; added tags and fusions are not shown.
UniProt P09382, whole entry: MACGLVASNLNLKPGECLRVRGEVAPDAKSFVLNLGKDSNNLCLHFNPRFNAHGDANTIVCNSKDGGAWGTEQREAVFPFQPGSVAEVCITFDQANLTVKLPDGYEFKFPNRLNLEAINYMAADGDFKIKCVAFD
UniProt P47929, whole entry: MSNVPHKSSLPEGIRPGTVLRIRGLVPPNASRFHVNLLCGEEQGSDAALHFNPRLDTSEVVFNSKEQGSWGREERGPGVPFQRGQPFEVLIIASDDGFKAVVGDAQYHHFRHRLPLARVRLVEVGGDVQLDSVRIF

In general, Kd refers to the equilibrium constant for the complex coming apart. High values mean weaker binding, low ones tighter binding.

One test has as its target Galectin-1 (Homo sapiens, UniProt P09382). The test is described as follows: Binding affinity to galectin 1 at 20 degC by fluorescence polarization assay. Background: Polarisation of emitted light reports the rotation of a fluorescent probe.
Another test has as its target Galectin-9 (Homo sapiens, UniProt O00182). The test is described as follows: Binding affinity to galectin 9N terminal domain at 0 degC by fluorescence polarization assay.
The next test deals with Galectin-7 (Homo sapiens, UniProt P47929). The test is described as follows: Binding affinity to galectin 7 at 0 degC by fluorescence polarization assay.

On to `OC[C@H]1O[C@@H](S[C@@H]2O[C@H](CO)[C@H](O)[C@H](O)[C@H]2O)[C@H](O)[C@@H](O)[C@H]1O` [THIODIGALACTOSIDE], for which the Kd came out at 78 µM on Galectin-1, 38 µM on Galectin-9 and 160 µM on Galectin-7.
